From PubChem BioAssay AID1259344 (Tox21, 2017)
The list shows a part of the results, in another mix than the full data. Records with an inconclusive call do not appear. The source made the active and inactive calls. Calls come from the whole dose curve; as a rule, active = well fitted activation curve with a large enough effect; inconclusive = small, poorly fitted or top-dose-only effect; inactive = flat fitted curve, though single readings scatter.

Test: qHTS assay to identify small molecule phospholipidosis (PLD) inducers
Conditions: HepG2 phospholipidosis, LipidTOX Red imaging, 24 h; at 38.3 µM (top of the series) unless noted
Excerpt: National Center for Advancing Translational Sciences [NCATS]
Drug-induced Phospholipidosis (PLD) caused by cationic amphiphilic drugs is characterized by the appearance of unicentric or multicentric-lamellar bodies when viewed under electron microscope. Electron microscopy is the gold standard method for PLD detection, however, this method is time-consuming and labor intensive, making it unsuitable for evaluating a large set of compounds. A cell-based phospholipidosis assay has been developed using the LipidTox reagent in HepG2 cells and miniaturized into a 1536-well plate format. Drug induced phospholipid accumulation is stained with the LipidTox dyes in red color which then is determined using an automated high content screening system.
HepG2 cells are dispensed at 900 cells/3 uL/well into Collagen I-coated 1536-well black-wall/clear-bottom assay plates (Greiner Bio-One, Monroe, NC) using the Multidrop Combi 8 channel dispenser (Thermo Fisher, Waltham, MA, USA). The assay plates are incubated at 37 C for 4 hours to allow the cell attachment. 3 uL of 1:500 LipidTOX Red dye is added using the dispenser, and then 23 nL compounds are added via a Wako Pintool station (Wako Automation, San Diego, CA). […]
For fixations, 4 uL of 8% paraformaldehyde fixative solution containing 10 ug/mL Hoechst 33342 in Dulbecco's phosphate-buffered saline (DPBS) is added using a Kalypsys washer/dispenser (Kalypsys, San Diego, CA, USA). […] The fluorescence intensities (595 nm excitation, 615 nm emission for LipidTOX; 352 nm excitation, 461 nm emission for Hoechst 33342) are measured using an ImageXpress Micro Widefield High Content Screening System (Molecular Devices, Sunnyvale, CA, USA) with a 20x Plan Fluor objective. Images are acquired for one site in each well and analyzed with the MetaXpress software (Molecular Devices) using the Transfluor module. Several algorithmic outputs, such as pit count per well, pit count per cell, pit integrated intensity per well, and pit integrated intensity per cell, are used for quantitative image analysis for PLD.
% is set by controls: 0 for no effect and ±100 for the full control effect.

For CCC(=O)N(c1ccccc1)C1(COC)CCN(CCn2nnn(CC)c2=O)CC1, which PLD induction is on record?
The PLD induction was inactive: -3.31% [at 78.4 µM].

For CN(CCCl)CCCl, which PLD induction is on record?
The PLD induction was inactive: 7.19%.

Which PLD induction does the source give for CCC(=O)N(c1ccccc1)C1CCN(CCc2ccccc2)CC1 here?
Its PLD induction is inactive: 0.919%.
